Bioassay records from PubChem BioAssay.
Hits are enriched below; roughly 2.2% of the tested compounds scored in any of these assays.
B2AR arrestin – beta2AR (human) beta-arrestin recruitment activity. actives 0.02% (n = 330,000). P07550. AID 492947. beta-arrestin recruitment to beta2AR, cell-based reporter. Potency, µM (doses to about 46.1 µM), inactives show top-dose activation, actives largely listed as activators;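 also: potency is read from the fitted curve at half-maximal effect; 0% = DMSO controls and full agonism = EC100 isoproterenol or metaproterenol; nearly all actives have a fitted effect of over 65% in size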
A549 tox – kills or reduces viability of A549 cells in Nrf2 counter-screen; A549 ARE-Fluc cells, CellTiter-Fluor viability, 18-24 h; Potency, µM (top dose mostly 46 µM), without a hit: at the highest dose activity change, negative = cytotoxicity, actives largely listed as inhibitors; actives 0.16% (n = 390,000); also: potency is read from the fitted curve at half-maximal effect; % is scaled to controls: 0 for no effect and ±100 for the full control effect
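A549 ARE-Fluc cells in 5% FBS OPTI-MEM, 5000 cells/well, rested 2 h then exposed to compounds in concentration-response for 18-24 h at 37 °C. Viability by CellTiter-Fluor fluorescence (Ex 405/Em 525) after 30 min; luciferase luminescence (BugLite, 15 min, RT) read afterwards.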
miR-21 FLuc – miR-21 reporter, rising signal | HeLa miR-21 FLuc reporter, luciferase, 48 h | Potency, µM (top dose mostly 38.3 µM), inactives show at the highest dose reporter change, positive = more light | 340,000 tested, under 10 active | AID 2288; active = well fitted rising curve with a large enough effect; inconclusive = small, poorly fitted or top-dose-only effect; inactive = no such curve, though single readings can be large or run the other way;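 note: % of control where 0% means no effect; miR-21 action dims this reporter so a rising signal means less miR-21 action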
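HeLa cells endogenously expressing miR-21, stably carrying CMV-driven firefly luciferase with a downstream miR-21 binding site, 2000 cells/well. Titrations up to approximately 40 uM, 48 hours; luciferase luminescence read.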
Nrf2 inh – Nrf2 pathway inhibition; A549 ARE-Fluc reporter, luciferase luminescence, 18-24 h; Potency, µM (doses to about 46 µM), for the others: at the highest dose activity change, negative = inhibition, most hits filed as inhibitors; actives 2.1% (n = 360,000); AID 504444; also: potency is read from the fitted curve at half-maximal effect; % is scaled to controls: 0 for no effect and ±100 for the full control effect; nearly all actives have a fitted effect of over 60% in size
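Nrf2 function is reported as luminescence of an ARE-controlled luciferase in A549 cells. Compounds were tested at several concentrations, and a CellTiter-Fluor read on the same wells flagged cytotoxicity.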
Nrf2 ARE act – Nrf2 pathway activation | AREc32 ARE-luciferase reporter (MCF7-derived line), luminescence, 24 h | Potency, µM (highest dose often 46.1 µM), for inactives: at the highest dose activation, most hits filed as activators | actives 0.31% (n = 410,000) | AID 624171; also: potency is read from the fitted curve at half-maximal effect; % of control where 0% means no effect; nearly all actives have a fitted effect of over 65% in size
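AREc32 cells carrying an ARE-driven firefly luciferase reporter were seeded at 1000 cells/well in OPTI-MEM with 5% FBS, then exposed to compound for 24 hr at 37 deg C. Luminescence was read with Steady-Glo after 30 min at RT.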
An asterisk follows results filed as active; ? = inconclusive; . = no result; ! = a repeat was not active; [ ] = another dose, or the depositor's remark. Unless noted, calls follow the shape of the dose curve; as a rule, active = well fitted curve in the direction sought with a large enough effect; inconclusive = small, poorly fitted or top-dose-only effect, or another doubt; inactive = no such curve, though single readings can be large; an effect the other way counts as inactive or inconclusive.

entry | molecule | B2AR arrestin | A549 tox | miR-21 FLuc | Nrf2 inh | Nrf2 ARE act
1 | CC(SC1=NS(=O)(=O)c2ccccc21)C(=O)O (stereo unspecified) | . | -2% | . | 23% | .
2 | CN(Cc1nc(Cc2ccccc2F)no1)Cc1cccc2ncccc12 | -1% | -21% | 11% | 18µM* | 0%
3 | Cc1ccc2c(c1)sc(-c1ccc(N(C)C)cc1)[n+]2C | 0% | ? | 14% | 2.1µM* | 8%
4 | COc1ccc(C)cc1Nc1n[n+](-c2ccccc2)c(-c2ccc(N(C)C)cc2)s1 | 0% | -17% | 18% | ? | 0%
5 | O=C(c1ccc2c(c1)OCO2)N1CCN(c2ccc(C(F)(F)F)cn2)CC1 | 0% | 0% | -5% | 12µM* | 5%
6 | O=C(c1ccc2c(c1)OCCO2)N1CCN(c2ccc(C(F)(F)F)cn2)CC1 | . | . | . | . | -1%
7 | CN(CC(=O)Nc1ccc(F)c(F)c1F)C(=O)/C=C/c1ccc(Cl)cc1 | -1% | 3% | -1% | -16% | 0%[9.22 µM]
8 | CN(CC(=O)Nc1ccc(F)c(F)c1F)C(=O)/C=C/c1ccco1 | 0% | 1% | . | -7% | 13µM*
9 | CC(C)(C)c1ccc(OCCNC(=S)Nc2ccccc2)cc1 | 0% | ? | 7% | 16µM* | 6%
10 | CNC1=C(N(C(C)=O)c2ccc(Br)cc2)C(=O)c2ccccc2C1=O | 0% | ? | 29% | 16µM* | -3%
11 | CCC(=O)N(C1=C(NC)C(=O)c2ccccc2C1=O)C(C)C | 0% | ? | ? | 16µM* | -4%
12 | Cc1cc2c(s1)c1cnn(Cc3c(F)c(F)cc(F)c3F)c(=O)c1n2C | . | 0% | . | -9% | .
13 | O=C(Nc1ccc2c(c1)CCCN2C(=O)c1cccs1)c1cccc(C(F)(F)F)c1 | . | -6% | 29% | . | -1%
14 | O=C(COC(=O)c1cc([N+](=O)[O-])ccc1N1CCOCC1)Nc1cccc(F)c1 | 0% | 4.6µM* | 6% | ? | 1%
15 | COc1ccc(C2Nc3ccc(NC(=O)CO)cc3C(=O)N2Cc2cccc(Cl)c2)cc1COc1ccc(NC(C)=O)cc1 (stereo unspecified) | . | -20% | . | ? | .
16 | O=C(CCc1ccccc1)Nc1ncnc2c1C(c1ccccc1)c1c(ccc3ccccc13)O2 (stereo unspecified) | . | -7% | . | 4.6µM* | .
17 | O=C(c1ccccc1)N(C(=O)c1ccccc1)c1ncnc2c1C(c1ccccc1)c1c(ccc3ccccc13)O2 (stereo unspecified) | 0% | ? | . | 2.9µM*! | 3%
18 | O=S(=O)(c1ccc2c(c1)OCCO2)N1CCN(S(=O)(=O)c2ccc(Br)cc2F)CC1 | . | -6% | . | -4% | .
19 | COc1cc(OC)cc(-c2cc3nc(C)c(CCC(=O)NCCc4cccc(C)c4)c(C)n3n2)c1 | . | -6% | 9% | 10µM* | -3%
20 | COc1cc(OC)cc(-c2cc3nc(C)c(CCC(=O)NCc4ccc(Cl)cc4)c(C)n3n2)c1 | . | 6% | ? | 10µM* | -4%
21 | CSc1ccc(CCNC(=O)CCc2c(C)nc3c(c(C)nn3-c3ccccc3)c2C)cc1 | . | 2% | 0% | 14% | 1%
22 | COc1ccc(CCNC(=O)CCc2c(C)nc3cc(-c4cccc(F)c4)nn3c2C)cc1OC | . | 0% | -8% | -13% | 0%
23 | Cc1cccc(CCNC(=O)CCc2c(C)nc3c(c(C)nn3-c3ccccc3)c2C)c1 | . | -18% | -8% | 23µM* | 0%
24 | Cc1ccc2ncnc(NCc3ccco3)c2c1 | . | -9% | . | ? | .
25 | O=S(=O)(c1ccc2ncsc2c1)N1CCN(c2nc(-c3cccs3)nc3ccccc23)CC1 | . | -3% | . | ? | .
26 | Oc1cc(Nc2ccc(N3CCCCC3)cc2)cc2cccnc12 | 0% | . | . | . | .
27 | CCc1nc(N)c(C#N)c(-c2ccco2)c1C | -1% | -2% | -11% | -10% | 2.5µM*
28 | Cc1ccccc1-c1nnc(SCC(=O)N2CCCc3ccccc32)o1 | . | -3% | -9% | -12% | 4%
29 | COc1ccc2[nH]cc(CCNC(=O)c3cnn(-c4ccccc4Cl)c3C3CCN(C(=O)OC(C)(C)C)CC3)c2c1 | . | ? | 23% | ? | 4%
30 | COc1cc(Cl)c(C)cc1NC(=O)c1cnn(-c2ccc(F)cc2F)c1C1CCN(C(=O)OC(C)(C)C)CC1 | . | 3% | 12% | ? | 1%
31 | COc1ccc(-n2ncc(C(=O)NCc3ccccc3)c2C2CCN(C(=O)OC(C)(C)C)CC2)cc1 | . | -2% | 4% | -11% | 0%
32 | COc1ccc2[nH]cc(CCNC(=O)c3cnn(-c4ccc(C)cc4)c3C3CCN(C(=O)OC(C)(C)C)CC3)c2c1 | . | -20% | ? | 15µM* | -1%
33 | Cc1c(Cl)cccc1-n1ncc(C(=O)Nc2ccc(F)cc2F)c1C1CCN(C(=O)OC(C)(C)C)CC1 | . | -11% | ? | 26µM* | 1%
34 | CCc1cccc(C)c1NC(=O)c1cnn(-c2ccc(OC)cc2)c1C1CCN(C(=O)OC(C)(C)C)CC1 | . | -15% | 29% | 23µM* | -1%
35 | Cc1cc2c(s1)c1cnn(Cc3ccccc3C)c(=O)c1n2C | . | -2% | . | -11% | .
36 | CCn1c(-c2ccc(C)cc2)nn(CC(=O)NCCc2ccccc2)c1=S | -2% | ? | ? | 23µM* | -1%
37 | CC(=C/c1ccccc1)/C=N/NC(=O)c1cnccn1 | 0% | -6% | -43% | 12% | 0%
38 | O=C(N/N=C/C(Cl)=C\c1ccccc1)c1cnccn1 | -1% | 8% | -30% | ? | 16µM*
39 | O=C(N/N=C/C(Cl)=C/c1ccccc1)c1cnccn1 | 0% | -3% | -36% | ? | 11µM*
40 | c1nc(N2CCC(N3CCCC3)CC2)c2cc(-c3ccc4c(c3)OCO4)ccc2n1 | . | 2% | . | -2% | .

Next section; it opens with the 6 that closed the last part.
entry | molecule | B2AR arrestin | A549 tox | miR-21 FLuc | Nrf2 inh | Nrf2 ARE act
35 | Cc1cc2c(s1)c1cnn(Cc3ccccc3C)c(=O)c1n2C | . | -2% | . | -11% | .
36 | CCn1c(-c2ccc(C)cc2)nn(CC(=O)NCCc2ccccc2)c1=S | -2% | ? | ? | 23µM* | -1%
37 | CC(=C/c1ccccc1)/C=N/NC(=O)c1cnccn1 | 0% | -6% | -43% | 12% | 0%
38 | O=C(N/N=C/C(Cl)=C\c1ccccc1)c1cnccn1 | -1% | 8% | -30% | ? | 16µM*
39 | O=C(N/N=C/C(Cl)=C/c1ccccc1)c1cnccn1 | 0% | -3% | -36% | ? | 11µM*
40 | c1nc(N2CCC(N3CCCC3)CC2)c2cc(-c3ccc4c(c3)OCO4)ccc2n1 | . | 2% | . | -2% | .
41 | O=C(NCc1nnc(-c2nc3ccccc3[nH]2)o1)C1CCCCC1 | . | -6% | . | -8% | .
42 | O=C(O)COc1ccc(-c2nccc(-c3ccccn3)n2)cc1 | 0% | -1% | ? | 2.1µM* | -1%
43 | CCc1cc(=O)oc2cc(OC(C)C(=O)NCC(O)c3ccccc3)c(Cl)cc12 (stereo unspecified) | 0% | -1% | 18% | -3% | 1%
44 | CCc1cc2c(-c3ccccc3)cc(=O)oc2cc1OC(C)C(C)=O (stereo unspecified) | 0% | 0% | 0% | 6.5µM* | 6%
45 | CC(=O)Nc1ccc(N=C(C2=C(O)c3ccccc3C2=O)c2ccccc2)cc1 | 0% | 21µM* | -28% | 21µM* | 10%
46 | COc1ccc(NC(=O)CNC(c2ccccc2)c2ccccc2)cc1 | 0% | -10% | 2% | 5% | -1%
47 | COc1ccc(C(NCC(=O)NC(C)c2ccc(Cl)cc2)c2ccccc2)cc1 (stereo unspecified) | -1% | ? | 0% | 15µM* | 4%
48 | Cc1c(C)n(Cc2ccccc2)c2ncnc(NN)c12 | -1% | -17% | -15% | 26µM* | 0%
49 | Cc1noc(C)c1-c1ccc2ncnc(NCc3cccc(C(F)(F)F)c3)c2c1 | . | -6% | . | ? | .
